{"sequences": {"note": "By UniProt entry, the sequences of proteins in these tests, tags left out.", "UniProt P0DMS8, whole entry": "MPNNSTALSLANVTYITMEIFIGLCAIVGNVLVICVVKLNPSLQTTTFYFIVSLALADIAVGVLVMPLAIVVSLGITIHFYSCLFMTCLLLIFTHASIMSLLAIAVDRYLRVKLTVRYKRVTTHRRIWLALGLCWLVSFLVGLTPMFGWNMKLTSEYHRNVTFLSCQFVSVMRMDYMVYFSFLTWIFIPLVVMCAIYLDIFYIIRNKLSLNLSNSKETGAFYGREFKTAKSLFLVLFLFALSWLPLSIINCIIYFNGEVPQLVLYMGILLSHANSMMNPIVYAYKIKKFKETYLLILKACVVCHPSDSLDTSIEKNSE", "UniProt P30542, whole entry": "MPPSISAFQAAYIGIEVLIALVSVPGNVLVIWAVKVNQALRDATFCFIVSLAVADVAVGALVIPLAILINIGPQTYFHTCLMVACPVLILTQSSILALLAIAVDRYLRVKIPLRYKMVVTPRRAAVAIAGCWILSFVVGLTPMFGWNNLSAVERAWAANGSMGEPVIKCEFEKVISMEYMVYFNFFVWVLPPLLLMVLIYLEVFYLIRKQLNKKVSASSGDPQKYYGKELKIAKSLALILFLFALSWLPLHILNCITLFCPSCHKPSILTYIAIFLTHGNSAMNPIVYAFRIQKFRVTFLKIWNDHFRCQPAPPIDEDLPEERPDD"}, "source": "ChEMBL document CHEMBL1139344", "about": "“Antagonists of the human A(2A) adenosine receptor. 4. Design, synthesis, and preclinical evaluation of 7-aryltriazolo[4,5-d]pyrimidines” (J Med Chem, 2009)", "key": {"Adenosine receptor A2b [1]": {"molecular_target": "T1, Adenosine receptor A2b (Homo sapiens, UniProt P29275)", "T1 sequence (P29275 whole entry)": "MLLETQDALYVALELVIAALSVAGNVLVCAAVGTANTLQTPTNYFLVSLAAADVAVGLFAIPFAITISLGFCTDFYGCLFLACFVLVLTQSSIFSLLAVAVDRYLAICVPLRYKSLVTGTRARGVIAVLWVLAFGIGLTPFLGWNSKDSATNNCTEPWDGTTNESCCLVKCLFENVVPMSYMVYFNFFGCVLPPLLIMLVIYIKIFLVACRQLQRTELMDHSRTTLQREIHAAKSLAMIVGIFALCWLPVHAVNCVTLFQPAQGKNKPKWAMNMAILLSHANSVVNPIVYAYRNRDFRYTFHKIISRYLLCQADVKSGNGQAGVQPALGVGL", "test": "Antagonist activity at human adenosine A2B receptor expressed in CHO-K1 cells by calcium mobilization-based FLIPR assay", "assay_type": "functional, cell-based", "details": "read-out: pA2 (converted)"}, "Adenosine receptor A3 [2]": {"molecular_target": "T2, Adenosine receptor A3 (Homo sapiens, UniProt P0DMS8)", "test": "Displacement of radioligand from human recombinant adenosine A3 receptor at 21 degC after 60 mins by cell-based microplate scintillation counting"}, "Adenosine receptor A1": {"molecular_target": "Adenosine receptor A1 (Homo sapiens, UniProt P30542)", "test": "Antagonist activity at human adenosine A1 receptor expressed in CHO-K1 cells by calcium mobilization-based FLIPR assay", "assay_type": "functional, cell-based", "details": "read-out: pA2 (converted)"}, "Adenosine receptor A2a": {"molecular_target": "Adenosine receptor A2a (Homo sapiens, UniProt P29274)", "test": "Antagonist activity at human adenosine A2A receptor expressed in CHO-K1 cells treated for 15 mins by calcium mobilization-based FLIPR assay", "assay_type": "functional, cell-based", "details": "read-out: pA2 (converted)"}, "Adenosine receptor A2b [3]": {"molecular_target": "T1, Adenosine receptor A2b", "test": "Displacement of radioligand from human recombinant adenosine A2B receptor at 21 degC after 60 mins by cell-based microplate scintillation counting"}, "Adenosine receptor A3 [4]": {"molecular_target": "T2, Adenosine receptor A3", "test": "Antagonist activity at human adenosine A3 receptor expressed in CHO-K1 cells by calcium mobilization-based FLIPR assay", "assay_type": "functional, cell-based", "details": "read-out: pA2 (converted)"}}, "data": [{"smiles": "Cc1cc(Cn2nnc3c(-c4ccco4)nc(N)nc32)ccc1N", "note": "[VIPADENANT]", "values": [{"measurement": "Kb", "setting": "Adenosine receptor A2b [1]", "value": 0.0316, "unit": "µM"}, {"measurement": "Ki", "setting": "Adenosine receptor A3 [2]", "value": 1.01, "unit": "µM"}, {"measurement": "Kb", "setting": "Adenosine receptor A1", "value": 0.1, "unit": "µM"}, {"measurement": "Kb", "setting": "Adenosine receptor A2a", "value": 0.000631, "unit": "µM"}, {"measurement": "Ki", "setting": "Adenosine receptor A2b [3]", "value": 0.063, "unit": "µM"}, {"measurement": "Kb", "setting": "Adenosine receptor A3 [4]", "value": 1.58, "unit": "µM"}]}]}
